The values that follow come from PubChem BioAssay AID488 (PCMD, 2006).

Structures are written as SMILES. Only a part is listed here, and it is no random draw. Activity calls are given as the source filed them. No stated cut-off is given here; in the data, active means inhibition above about 22% (passing the limit was not always enough); inconclusive means no clear call, values can overlap the other calls.

For this test, the target named is Cathepsin B (Homo sapiens) (UniProt P07858). Description: human cathepsin B blockade, pooled library – biochemical, compound mixtures, AMC fluorescence, primary screen (AID 488).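 Further: 0% = enzyme without compound and 100% = no enzyme blank.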 The following applies: Purified cathepsin B, AMC dipeptide fluorescence, hits give high values,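 ten-compound pools at 5 µM per compound and 50 µM total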.
In the case of `COC(=O)c1cc2c(s1)N=C(c1ccccc1)N(C)P2(=O)N1CCOCC1` (stereo not given), the inhibition (as a rule, the relative decrease from the control value, in per cent) was inactive: 7.29%. As for `O=P1(Nc2nc3ccc(Cl)cc3s2)COc2ccccc2O1` (stereo not given), the inhibition was inactive: -0.885%. Take `c1nnnn1CCn1cnnn1`: the inhibition is inactive: -0.78%. For `O=P(Nc1nccs1)(c1ccccc1)c1ccccc1`, the inhibition is inactive: 0.37%. As to `O=C(OC1CN2CCC1CC2)c1cccc(Cl)c1` (stereo not given), the inhibition was inactive: -1.05%. For the molecule `CCc1nc2c(n1)c1c(non1O)c1c2no[n+]1[O-]`, the inhibition was inactive: 0.255%. With `Cc1c2non([O-])c-2c(C)[n+](=O)[n+]1[O-]`, the inhibition is inactive: 1.47%.

For the molecule `O=C(OC1CN2CCC1CC2)C12CC3CC(CC(C3)C1)C2` (stereo not given), the inhibition was inactive: -8.6%. For `O=C(COc1ccccc1)OC1CN2CCC1CC2` (stereo not given) the value was inactive: 4.78%; for `COP1(=S)c2c(C)nn(CCC#N)c2N=C(c2ccc(F)cc2)N1C` (stereo not given), inactive: 2.79%. As for `Cc1ccc(OCC(=O)OC2CN3CCC2CC3)cc1` (stereo not given), the inhibition is inactive: 0.105%. Turning to `O=P1(Nc2ccc(Br)cn2)COc2ccccc2OC1`, the inhibition was inactive: 0.47%. In the case of `O=P1(Nc2ncccn2)COc2ccccc2OC1`, the inhibition is inactive: 4.75%.

`Cc1nn(-c2ccccc2)c2c1P(=O)(N1CCOCC1)N(C)C(c1ccccc1)=N2` (stereo not given): the inhibition is inactive: 4.12%. On to `Clc1n[nH]nc1-c1nn[nH][15n]1`, for which the inhibition was inactive: 3.38%. On to `O=P1(Nc2ccccn2)COc2ccccc2OC1`, for which the inhibition is inactive: 3.88%. In the case of `Cc1cccc(OCC(=O)OC2CN3CCC2CC3)c1` (stereo not given), the inhibition was inactive: -5.18%. For the molecule `CCOP1(=S)c2c(C)nn(CCC#N)c2N=C(c2ccc(F)cc2)N1C` (stereo not given), the inhibition is inactive: -1.15%.

As to `O=P(Nc1nccs1)(c1ccccc1)c1nc2ccccc2s1` (stereo not given), the inhibition is inactive: 6.27%. Consider `CCOP1(=S)c2c(C)nn(CCC#N)c2N=C(c2ccccc2F)N1C` (stereo not given), for which the inhibition is inactive: 0.63%.
